According to PMC10145285, “Diverse Biological Activity of Benzofuroxan/Sterically Hindered Phenols Hybrids” (Pharmaceuticals, 2023):
Only a part of the results on these compounds is given; other tests are left out.

How the values were obtained:
Chang Liver = experiment: MTT cytotoxicity, normal Chang liver; settings: read-out: IC50, Chang Liver, normal cell line, 48 h incubation
PANC-1 = experiment: MTT cytotoxicity, PANC-1; settings: read-out: IC50, PANC-1, cancer cell line, 48 h incubation
HuTu 80 = experiment: MTT cytotoxicity, HuTu 80; settings: read-out: IC50, HuTu 80, cancer cell line, 48 h incubation

Measured: IC50

O=[N+]([O-])c1cc([N+](=O)[O-])c2no[n+]([O-])c2c1Cl
> 100 µM: all assays above
